High-throughput results from PubChem.
This is a sample that favours compounds with a hit; in the whole collection about 1.7% have one here.
CAL PDZ FP-1 = untagged CAL PDZ binding inhibitors, primary screen, biochemical, fluorescence polarization, HTS | purified CAL PDZ, TMR-peptide fluorescence polarization, 1 h | inhibition, % at 24.9 µM | 300,000 tested, 0.92% active | AID 602252, 2012;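 active = mean inhibition of at least 30% with at least half of replicates also reaching 30%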;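 note: 0% = DMSO neutral control and 100% = excess unlabeled competitor peptide PRC23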
dFosB act = activators of delta FosB homodimer, primary screen, biochemical, fluorescence polarization, TAMRA-CDK5 oligo, single point | Protein FosB (Mus musculus), P13346 | purified delta FosB; percent of positive-control signal above neutral wells | activation, % at 25 µM | 340,000 tested, 0.99% active | AID 493131, 2011;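 active = mean activation above about 17%, with every replicate also reaching it, limit read from the data, passing the limit was not always enough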
CDK5 p35 inh = inhibitors of human CDK5/p35 kinase, primary screen, biochemical, single concentration; Cyclin-dependent kinase 5 (Homo sapiens) + Cyclin-dependent kinase 5 activator 1 (Homo …; Recombinant CDK5/p35, ADP-Glo luminescence, 60 min; inhibition, % at 10 µM; 330,000 tested, 0.01% active; AID 488839, 2010;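 active = highest replicate inhibition of at least 50% and at least 75% of replicates reaching 50%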;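 note: plate controls were DMSO neutral control for no effect and GW8510 at 10 µM for full effect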
UUG fidelity = modulators of start codon recognition fidelity in yeast. S. cerevisiae UUG-firefly luciferase reporter, luminescence/redox ratio. activity score, % at 18.7 µM. 0.13% of 350,000 active. AID 602363;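 active = replicate mean at a twofold rise or more, about +100% in these data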;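 also: firefly luciferase made from a UUG start codon reports start codon fidelity; reporter light over untreated wells divided by growth signal over untreated wells; some hits fall short of that in this replicate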
CAL PDZ FP-2 = CAL PDZ peptide-binding inhibitors, primary screen, biochemical, fluorescence polarization, Cer-tagged CAL PDZ, HTS; purified CAL PDZ, TMR-peptide fluorescence polarization, 1 h; inhibition, % at 20 µM; 330,000 tested, 0.02% active;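 active = highest replicate inhibition of at least 40%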;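 note: plate controls were DMSO neutral control wells for no effect and unlabeled competitor peptide control wells for full effect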
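Material: tagged CAL PDZ domain; buffer or medium: 25 mM sodium phosphate pH 7.4, 150 mM NaCl, TCEP, IgG, Thesit; compound dosing: single point, 20 µM; schedule: 1 h incubation at room temperature before polarization reading; measured by: FP readout, S and P plane fluorescence; read-out basis: percent inhibition from loss of millipolarization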
DYRK1A inh = rat Dyrk1A kinase inhibitors, primary screen, biochemical, single point, plate reader. AID 504441, 2011. ADP-Glo luminescence, NFATc1 peptide. 310,000 tested, 0.43% active. inhibition, % at 12.5 µM; in the data active = inhibition above about 50%;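 note: plate controls were vehicle with enzyme for no effect and no enzyme for full effect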
* = called active by the depositor; · = not tested or not shown; + = active, no number.

CAL PDZ FP-1 | dFosB act | CDK5 p35 inh | UUG fidelity | CAL PDZ FP-2 | DYRK1A inh | Molecule
-4 | -3 | -2 | 5 | -3 | -2 | COc1cc(CCC(=O)OCC(=O)Nc2ccccc2F)cc(OC)c1OC
68* | -6 | 0 | -10 | 0 | -2 | O=C(NCC1CCCN(Cc2cccc(F)c2)C1)c1cccc2ccccc12 (configuration not stated)
-5 | -3 | -2 | 6 | · | -1 | CCOc1cccc(CN2CCCC(CNC(=O)c3cccc(OC)c3OC)C2)c1 (configuration not stated)
-6 | -7 | 0 | -8 | · | 5 | COc1ccc(CC(=O)NCC2CCCN(Cc3cccc(SC)c3)C2)cc1 (configuration not stated)
146* | 0 | -3 | -9 | -1 | -3 | CSc1cccc(CN2CCCC(CNC(=O)c3ccco3)C2)c1 (configuration not stated)
33* | 1 | -1 | · | 23 | 10 | CCn1ncc(Br)c1C(=O)Nc1cccc(F)c1
· | · | · | -3 | · | · | CC(=O)N(C)C[C@H]1Oc2cc(C#CCN(C)C)ccc2S(=O)(=O)N([C@H](C)CO)C[C@@H]1C
+ | 0 | 1 | -8 | -1 | -5 | CCn1c(SCC(=O)N2CCCC(C)C2)nc2c1c(=O)n(C)c(=O)n2C (configuration not stated)
-2 | -15 | -2 | -16 | -2 | 2 | Cc1ccc(CN2CCN(/N=C/c3ccc(O)c(O)c3)CC2)cc1
72* | 2 | -1 | -6 | 7 | 6 | COc1ccc(/C=N/N2CCN(Cc3ccc(C)cc3)CC2)cc1Br
-2 | 42* | · | -26 | -5 | · | CN(CC(=O)Nc1ccc(F)c(Cl)c1)S(=O)(=O)c1ccc2c(c1)n(C)c(=O)c(=O)n2C
40* | -6 | 2 | 4 | 0 | 0 | C=CCN(c1ccc(F)cc1)S(=O)(=O)c1cc(C(=O)OCC(=O)N(C)C2CCS(=O)(=O)C2)ccc1Cl (configuration not stated)
20 | -9 | 2 | -5 | 0 | -8 | CN(C(=O)COC(=O)c1ccc(F)c(S(=O)(=O)N2CCOCC2)c1)C1CCS(=O)(=O)C1 (configuration not stated)
· | · | · | 14 | · | · | Cc1noc(C)c1S(=O)(=O)N(C)C[C@H]1Oc2ccc(NS(=O)(=O)c3ccc(Cl)cc3)cc2CC(=O)N([C@@H](C)CO)C[C@H]1C
0 | -9 | 0 | -17 | -1 | 13 | O=C(NCc1ccccc1)c1ccc(NC(=O)C2CC2)cc1

Five entries from above, bar-delimited.
compound | CAL PDZ FP-1 | dFosB act | CDK5 p35 inh | UUG fidelity | CAL PDZ FP-2 | DYRK1A inh
CCOc1cccc(CN2CCCC(CNC(=O)c3cccc(OC)c3OC)C2)c1 (configuration not stated) | -5 | -3 | -2 | 6 | · | -1
COc1ccc(CC(=O)NCC2CCCN(Cc3cccc(SC)c3)C2)cc1 (configuration not stated) | -6 | -7 | 0 | -8 | · | 5
CSc1cccc(CN2CCCC(CNC(=O)c3ccco3)C2)c1 (configuration not stated) | 146* | 0 | -3 | -9 | -1 | -3
CCn1ncc(Br)c1C(=O)Nc1cccc(F)c1 | 33* | 1 | -1 | · | 23 | 10
CC(=O)N(C)C[C@H]1Oc2cc(C#CCN(C)C)ccc2S(=O)(=O)N([C@H](C)CO)C[C@@H]1C | · | · | · | -3 | · | ·

(listing goes on)
CAL PDZ FP-1 | dFosB act | CDK5 p35 inh | UUG fidelity | CAL PDZ FP-2 | DYRK1A inh | Molecule
59* | 7 | 1 | -13 | -1 | -1 | O=C(NCCc1ccccc1)c1ccc(NC(=O)C2CC2)cc1
31* | 1 | -1 | -21 | 0 | · | Nc1ccccc1-n1cccc1
3 | -1 | -6 | · | 0 | -6 | N/C(=N\O)c1ccccc1-n1cccc1
94* | -5 | 0 | -16 | 1 | -3 | Cn1c(=O)c2[nH]c(NN=Cc3ccccc3)nc2n(C)c1=O
· | -5 | -1 | -2 | -1 | -1 | CCOC(=O)C1CCCN(CCc2ccccc2)C1 (configuration not stated)
41* | -4 | 1 | · | -3 | · | O=C(OC1C2CCC1C1CN(CCc3ccccc3)CC12)c1ccccc1 (configuration not stated)
3 | 25* | 2 | -8 | -1 | 0 | CCCCCCCCCCOC(=O)Cn1c(COc2ccccc2OC)[n+](C)c2ccccc21
4 | 56* | 2 | · | 2 | 34 | O=C1c2ccccc2C(=O)c2c(NCCCN(CCO)CCO)cccc21
0 | -7 | -1 | 0 | 0 | 7 | CCN(CC)CC(=O)Nc1cccc2c1C(=O)c1ccccc1C2=O
· | · | · | 9 | · | · | COC(=O)c1ccc([C@@H]2C=C(C(=O)N3CCN(Cc4ccc5c(c4)OCO5)CC3)O[C@H](OCc3ccc(CO)cc3)C2)cc1
· | · | · | 12 | · | · | CO[C@@H]1CN(C)C(=O)c2ccc(NC(=O)NC3CCCCC3)cc2OC[C@@H](C)N(CCc2ccccc2)C[C@H]1C
31* | -1 | 1 | -18 | -1 | 3 | Cc1cccc(N(O)C(=O)Nc2cccc(Cl)c2)c1
· | · | · | -5 | · | · | O=C(Cc1ccccc1)N[C@H]1CC[C@H](CC(=O)N2CCCCC2)O[C@H]1CO
49* | -9 | -2 | -9 | 0 | 4 | COCCSc1nnc(NC(=O)Cc2ccc(OC)cc2)s1
· | · | · | -13 | · | · | Cc1noc(C)c1NC(=O)N(C)C[C@@H]1OCCCC[C@H](C)Oc2ccc(NS(=O)(=O)c3cn(C)cn3)cc2C(=O)N([C@@H](C)CO)C[C@@H]1C
· | · | · | 19 | · | · | O=C(CC(F)(F)F)N1C[C@H]2[C@@H](c3ccccc31)[C@H](CO)N2C(=O)CN1CCOCC1
· | · | · | 1 | · | · | Cc1ccc(S(=O)(=O)Nc2ccc3c(c2)C(=O)N([C@H](C)CO)C[C@@H](C)[C@H](CN(C)C(=O)NC2CCCCC2)OCCCC[C@H](C)O3)cc1
161* | 6 | 1 | · | -2 | 3 | CCC(=O)c1ccc(N2CCCCC2)c(F)c1
· | · | · | 4 | · | · | COc1ccc(S(=O)(=O)N(C)C[C@H]2OCCCC[C@H](C)Oc3ccc(NC(=O)Nc4cccc5ccccc45)cc3C(=O)N([C@@H](C)CO)C[C@H]2C)cc1
71* | -10 | -1 | · | -1 | 0 | COc1ccccc1/C=C/C(=O)NNC(=O)c1cccs1
-2 | -2 | 0 | · | -2 | · | O=C(/C=C/c1ccccc1)NNC(=O)c1cccs1
· | · | · | 17 | · | · | COc1ccc(C#Cc2ccc3c(c2)[C@H]2[C@H](CCN2C(=O)NC(C)C)[C@H](CO)N3C)cc1
72* | -5 | -2 | -11 | 13 | 3 | COc1ccc(OCC(O)CNC(=O)c2ccc(Br)cc2)cc1 (configuration not stated)
-1 | -8 | 1 | · | -1 | 1 | COc1ccc(OCC(O)CNC(=O)c2ccc(OC)cc2)cc1 (configuration not stated)
· | 5 | 1 | 5 | -2 | 2 | O=C(Cn1ncc2c([nH]c3ccccc32)c1=O)Nc1cccnc1
-8 | 55* | 0 | -17 | 0 | 1 | Cc1ccc(NC(=O)Cn2ncc3c([nH]c4ccccc43)c2=O)cc1Cl
· | 2 | -1 | -18 | 0 | 2 | NC(=NCCc1ccc(Cl)cc1)NS(=O)(=O)c1ccccc1
46* | -7 | -2 | · | -1 | 6 | NC(=NCCc1ccc(Cl)cc1)NS(=O)(=O)c1ccc(F)cc1
